Data taken from publication PMC6696040, “Affinity Immobilization of a Bacterial Prolidase onto Metal-Ion-Chelated Magnetic Nanoparticles for the Hydrolysis of Organophosphorus Compounds” (2019).

Sequences of proteins named here, by UniProt entry; tags and fusion partners are left off. A change or cut given only in a name is not applied to a line headed by its entry.
UniProt P21165: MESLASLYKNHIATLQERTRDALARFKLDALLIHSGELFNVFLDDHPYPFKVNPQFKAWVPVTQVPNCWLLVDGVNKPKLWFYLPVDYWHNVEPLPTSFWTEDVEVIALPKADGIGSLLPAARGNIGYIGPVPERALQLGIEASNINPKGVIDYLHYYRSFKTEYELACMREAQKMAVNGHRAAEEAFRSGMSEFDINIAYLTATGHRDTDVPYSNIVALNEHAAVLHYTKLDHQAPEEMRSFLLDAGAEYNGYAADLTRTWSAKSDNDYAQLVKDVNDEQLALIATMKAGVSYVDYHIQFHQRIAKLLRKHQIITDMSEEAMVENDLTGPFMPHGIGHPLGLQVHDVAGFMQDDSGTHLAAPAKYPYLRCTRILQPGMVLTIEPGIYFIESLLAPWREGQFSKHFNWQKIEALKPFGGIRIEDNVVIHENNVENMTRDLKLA

Target: His6-EcPepQ (His6-tagged Escherichia coli prolidase) (Escherichia coli, UniProt P21165)
Test: proline release
Conditions: free enzyme; pH 8.0, 60 °C

Structure (SMILES): C[C@H](N)C(=O)N1CCC[C@H]1C(=O)O
- proline release: monitoring the release of proline from Ala-Pro by free and immobilized enzymes
